# Source: US9272035B2, “Methods and compositions using PDE4 inhibitors for the treatment and management of autoimmune and inflammatory diseases” (Celgene Corporation, priority 2011, dated 2016)
# Experiments:
# [1] = system: mAB/LPS-induced experimental arthritis; assay: Antibody-induced arthritis in mice (mAb/LPS model, 11 treatment days); conditions: for hind paw thickness: study days 5, 7, 9, 11 and 14
# [2] = system: collagen antibody-induced arthritis; assay: Mouse model of collagen antibody-induced arthritis (CAIA); type: in vivo, Male BALB/c mice; conditions: both doses tested (5 or 6.25 mg/kg IP) once daily on days 3-13
# Protocol: Cytokine and chemokine protein levels were analyzed by cytometric bead array on a Luminex 100. CAIA model: […] Compound A and ETN were administered once daily on days 3-13. […] Both hind paws (left and right) of each animal were examined for signs of arthritogenic responses in blinded fashion. Arthritic reactions were scored and recorded according to a 0-4 scale in ascending order of severity. Hind paw thickness was measured in mm using a Mitutoyo Electronic Digital Caliper.
Molecule,"hind paw thickness ([1]; 5 or 25 mg/kg PO once daily, 11 days, vs. Vehicle Control)",hind-paw arthritic reaction scores and thickness [2],"hind paw thickness ([1]; 5 or 6.25 mg/kg, Positive Control, listed as Enbrel)","mean group percentage change in hind paw thickness vs. arthritis induction initiation (Day 0) ([1]; 5 or 6.25 mg/kg, vs. Vehicle Control, Days 7, 9, 11 & 14)"
"CCOc1cc([C@@H](CS(C)(=O)=O)N2C(=O)c3cccc(NC(C)=O)c3C2=O)ccc1OC [Compound A, (S)-N-(2-(1-(3-ethoxy-4-methoxyphenyl)-2-(methylsulfonyl)ethyl)-1,3-dioxoisoindolin-4-yl)acetamide]",statistically significant reduction in paw swelling,–,–,–
etanercept [reference compound],–,significantly reduced (p<0.01),statistically significant reduction in paw swelling,highly significantly lower (P<0.01)
